Measured values published in patent US11452709B2, “Compositions and methods for preventing and treating radiation-induced bystander effects caused by radiation or radiotherapy” (The Regents of the University of Colorado, priority 2017, dated 2022).
pIC50: −log10 of the molar value.

Key:
CTSB protease = target: T1, CTSB protease (Homo sapiens, UniProt P07858); experiment: CTSB protease activity inhibition in vitro (z-Arg-Arg-AMC substrate); format: biochemical
T1 construct: purchased Sino Biological Inc. 10483-H08H-10

[1] = target: T2, C. elegans CPR-4 protease (Caenorhabditis elegans, UniProt P43508); experiment: CPR-4 protease activity inhibition in vitro (z-Arg-Arg-AMC substrate); format: biochemical; details: 1 mM of each compound; read-out: Inhibition rate(%) of the C. elegans CPR-4 protease activity
T2 construct: a cpr-4 cDNA fragment encoding residues 16-336 was PCR amplified from the full-length cpr-4 cDNA clone; GST (N, cleaved yes); made in house; host or cells: Escherichia coli BL21(DE3)
T2 sequence (P43508 81-335): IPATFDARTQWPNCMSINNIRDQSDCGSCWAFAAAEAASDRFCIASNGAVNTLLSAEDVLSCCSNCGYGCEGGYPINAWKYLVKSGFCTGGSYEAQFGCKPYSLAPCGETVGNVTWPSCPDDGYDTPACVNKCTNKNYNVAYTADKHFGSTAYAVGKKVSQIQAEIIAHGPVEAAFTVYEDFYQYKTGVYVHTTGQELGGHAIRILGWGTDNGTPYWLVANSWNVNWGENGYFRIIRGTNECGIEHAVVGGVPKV

In the case of CC(C)C[C@H](NC(=O)[C@@H](N)CCCNC(=N)N)C(=O)N[C@@H](C)C(=O)O [NH2-Arg-Leu-Ala-COOH], the “IC50 in inhibiting the CTSB protease activity” value (CTSB protease) was “significantly higher than other compounds”, the “Inhibition rate (%) of the CTSB protease activity” value (CTSB protease; 1 mM of each compound) was 86.12% and the inhibition at 1000 µM (CTSB protease; 1 mM of each compound, read-out: Inhibition rate (%) of the CTSB protease activity) was > 86%. The pIC50 (CTSB protease; read-out: IC50 in inhibiting the CTSB protease activity) was 4.91 and the inhibition at 1000 µM [1] was 85%.
